Among the data in patent US20150291593A1, “NOVEL HETEROARYL AND HETEROCYCLE COMPOUNDS, COMPOSITIONS AND METHODS” (HUTCHISON MEDIPHARMA LIMITED, priority 2012, published 2015) are IC50 values, retold here.

The chains behind the UniProt entries cited, without tags or fusion partners. Where a name states a change or a piece, a line headed by the entry shows the natural chain unless it says otherwise.
UniProt O00329, whole entry, species assumed: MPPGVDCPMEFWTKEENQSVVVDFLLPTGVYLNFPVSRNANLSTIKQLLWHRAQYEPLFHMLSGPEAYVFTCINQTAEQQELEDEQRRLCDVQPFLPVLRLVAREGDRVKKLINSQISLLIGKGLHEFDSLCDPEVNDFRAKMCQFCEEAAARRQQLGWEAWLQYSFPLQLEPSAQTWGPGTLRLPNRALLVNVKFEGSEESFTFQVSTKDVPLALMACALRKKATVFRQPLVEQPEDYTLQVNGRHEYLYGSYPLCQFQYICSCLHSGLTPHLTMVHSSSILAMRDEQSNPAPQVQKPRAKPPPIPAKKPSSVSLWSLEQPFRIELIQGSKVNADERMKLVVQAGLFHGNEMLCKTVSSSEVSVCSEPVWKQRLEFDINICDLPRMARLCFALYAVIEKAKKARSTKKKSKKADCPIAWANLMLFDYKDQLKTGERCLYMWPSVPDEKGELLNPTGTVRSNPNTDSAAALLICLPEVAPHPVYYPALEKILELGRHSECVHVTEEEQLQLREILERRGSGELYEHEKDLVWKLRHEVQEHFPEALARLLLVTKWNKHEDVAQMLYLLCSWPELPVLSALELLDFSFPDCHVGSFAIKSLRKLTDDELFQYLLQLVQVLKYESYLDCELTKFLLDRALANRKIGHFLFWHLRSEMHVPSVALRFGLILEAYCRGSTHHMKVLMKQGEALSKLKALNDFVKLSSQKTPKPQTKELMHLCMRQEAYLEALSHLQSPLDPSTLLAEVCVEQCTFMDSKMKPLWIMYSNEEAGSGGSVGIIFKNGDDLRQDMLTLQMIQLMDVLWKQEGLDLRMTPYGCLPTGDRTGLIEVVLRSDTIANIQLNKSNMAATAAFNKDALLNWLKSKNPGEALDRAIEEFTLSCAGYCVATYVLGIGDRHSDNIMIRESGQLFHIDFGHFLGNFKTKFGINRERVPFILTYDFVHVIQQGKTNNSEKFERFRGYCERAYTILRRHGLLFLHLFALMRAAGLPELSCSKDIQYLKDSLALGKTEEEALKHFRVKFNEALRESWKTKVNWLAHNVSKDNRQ

The assay deals with T1, p110δ/p85α (Homo sapiens, UniProt O00329).
T1 construct: purchased Invitrogen
The experiment in a line: Transcreener KINASE Assay, kinase inhibition of p110δ/p85α. It is filed as biochemical. Particulars: read-out: PI3Kδ IC50.

Broadly, the IC50 is the concentration needed to halve the response being measured. As to `N#Cc1c(N)ncnc1N1CCC[C@H]1c1nn2cccc2c(=O)n1-c1ccccc1` [Compound 5], the IC50 was found to be 3 nM.
